{
  "sequences": {"note": "Amino acid sequences for entries named in this document (tags omitted).", "UniProt P11483, whole entry": "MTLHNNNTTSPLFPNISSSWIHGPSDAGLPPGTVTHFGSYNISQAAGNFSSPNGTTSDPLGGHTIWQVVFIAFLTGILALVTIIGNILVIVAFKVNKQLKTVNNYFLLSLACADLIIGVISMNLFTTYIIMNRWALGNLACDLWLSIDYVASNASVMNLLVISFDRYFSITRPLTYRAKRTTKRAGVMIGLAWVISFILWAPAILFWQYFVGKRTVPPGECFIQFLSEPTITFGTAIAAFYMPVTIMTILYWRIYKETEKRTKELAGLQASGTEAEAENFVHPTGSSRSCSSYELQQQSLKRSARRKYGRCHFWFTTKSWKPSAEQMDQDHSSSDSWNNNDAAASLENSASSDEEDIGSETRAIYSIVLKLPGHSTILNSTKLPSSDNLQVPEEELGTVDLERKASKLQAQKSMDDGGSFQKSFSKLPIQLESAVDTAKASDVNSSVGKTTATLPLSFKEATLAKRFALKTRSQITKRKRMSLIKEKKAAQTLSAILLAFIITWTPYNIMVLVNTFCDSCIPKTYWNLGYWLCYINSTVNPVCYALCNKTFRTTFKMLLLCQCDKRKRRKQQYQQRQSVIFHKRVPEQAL"},
  "source": "paper PMC1079883",
  "about": "“Effects of first and second generation antihistamines on muscarinic induced mucus gland cell ion transport” (BMC Pharmacology, 2005)",
  "target": "T1, M3 subtype muscarinic receptor (Sus scrofa, UniProt P11483)",
  "T1 construct": "Tracheal submucosal gland cells were isolated from the tracheal epithelium; endogenous in cells; host or cells: primary swine tracheal submucosal (mucus) gland cells in culture",
  "assay": "ACh-induced short-circuit current (ΔIsc) in cultured airway mucus gland cells, Ussing chamber, Schild dose-ratio method",
  "type": "cell-based, swine",
  "data": [
    {"smiles": "CN1[C@@H]2CC[C@H]1C[C@@H](OC(=O)C(CO)c1ccccc1)C2", "note": "(some centres unmarked) [Atropine]", "values": [
      {"measurement": "Kb", "result": 0.398, "unit": "nM"},
      {"measurement": "Muscarinic inhibition (pA2)", "result": 9.4}
    ]}
  ]
}
